Target: exTrkB (Homo sapiens, UniProt Q16620)
Test: MST binding affinity (Kd) determination
Conditions: non-binding compounds given as 0
Protocol: The gene encoding the extracellular domain of the human TrkB receptor (exTrkB), residues 1−430, was cloned into the pCMV2 expression vector. Protein expression was performed in suspension-cultivated mammalian ExpiCHO-S cells using the ExpiFectamine (Thermo Scientific, Thermo Fisher Scientific, Waltham, MA, USA) transfection reagent. The secreted protein was purified using a four-step protocol. Clarified culture medium was precipitated with ammonium sulfate added to a final concentration of 1.5 M and centrifuged (235,000× g, 60 min at 4 °C). The supernatant after centrifugation was applied on a HiTrap Phenyl column (GE Healthcare, Chicago, IL, USA) equilibrated with buffer A (25 mM Tris, 1 mM DTT; pH 7.5) with 1.5 M ammonium sulfate. Bound proteins were eluted with a linear gradient of buffer A. The eluted proteins were dialyzed overnight in buffer A and loaded on a CaptoQ ImpRes column (GE Healthcare) equilibrated with buffer A with 50 mM NaCl. The bound proteins were eluted with a linear gradient of buffer A with 1 M NaCl. The fractions containing exTrkB protein were pooled, and MnCl2 and CaCl2 (1mM final concentration each) were added. […] The protein concentration was determined from the absorption at 280 nm using an UV NanoDrop 1000 spectrophotometer (Thermo Scientific).
The exTrkB was labeled with a Monolith Protein Labeling Kit RED-NHS 2nd Generation (NanoTemper Technologies GmbH, Munich, Germany) according to the manufacturer’s protocol. The labelling efficiency was always determined spectrophotometrically with NanoPhotometer® NP80 (Impel) in line with the manufacturer’s recommendations. […]
For primary screening (single-point MST experiments for signal amplitude determination), each of the 987 screened compounds were diluted in MST buffer + 0.1% Tween20 to a final concentration of 0.5 mM. […] The experiments were performed using nano-blue excitation, LED light adjusted to 20% excitation power, and MST power set to medium, and the fluorescence signal during thermophoresis was detected after 30 s. […]

Sequences of proteins named here, by UniProt entry; tags and fusion partners are left off. Residues count along the entry.
UniProt Q16620, 32-430 limits assumed: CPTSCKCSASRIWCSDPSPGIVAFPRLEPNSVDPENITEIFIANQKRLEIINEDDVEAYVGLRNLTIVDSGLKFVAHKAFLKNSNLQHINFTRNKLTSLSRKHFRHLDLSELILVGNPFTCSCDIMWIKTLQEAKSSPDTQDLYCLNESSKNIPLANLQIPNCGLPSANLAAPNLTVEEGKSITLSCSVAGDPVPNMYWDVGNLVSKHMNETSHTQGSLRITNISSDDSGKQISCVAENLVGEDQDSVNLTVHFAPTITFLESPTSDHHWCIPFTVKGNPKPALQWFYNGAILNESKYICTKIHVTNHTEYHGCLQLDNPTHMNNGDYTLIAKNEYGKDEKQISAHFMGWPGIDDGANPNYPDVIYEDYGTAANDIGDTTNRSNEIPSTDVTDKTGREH

Kd [µM] | Structure (SMILES)
44.2 | CC(C)=CCc1cccc2c(C3=C(O)C(=O)C=C(O)C3=O)c[nH]c12
25 | CC(C)=CCc1cccc2c(C3=C(O)C(=O)C(c4c[nH]c5ccccc45)=C(O)C3=O)c[nH]c12
